From ChEMBL document CHEMBL1140814 (Bioorg Med Chem Lett, 2008) come the findings set out here.

The chains behind the UniProt entries cited, without tags or fusion partners. Where a name states a change or a piece, a line headed by the entry shows the natural chain unless it says otherwise.
UniProt P20309, whole entry: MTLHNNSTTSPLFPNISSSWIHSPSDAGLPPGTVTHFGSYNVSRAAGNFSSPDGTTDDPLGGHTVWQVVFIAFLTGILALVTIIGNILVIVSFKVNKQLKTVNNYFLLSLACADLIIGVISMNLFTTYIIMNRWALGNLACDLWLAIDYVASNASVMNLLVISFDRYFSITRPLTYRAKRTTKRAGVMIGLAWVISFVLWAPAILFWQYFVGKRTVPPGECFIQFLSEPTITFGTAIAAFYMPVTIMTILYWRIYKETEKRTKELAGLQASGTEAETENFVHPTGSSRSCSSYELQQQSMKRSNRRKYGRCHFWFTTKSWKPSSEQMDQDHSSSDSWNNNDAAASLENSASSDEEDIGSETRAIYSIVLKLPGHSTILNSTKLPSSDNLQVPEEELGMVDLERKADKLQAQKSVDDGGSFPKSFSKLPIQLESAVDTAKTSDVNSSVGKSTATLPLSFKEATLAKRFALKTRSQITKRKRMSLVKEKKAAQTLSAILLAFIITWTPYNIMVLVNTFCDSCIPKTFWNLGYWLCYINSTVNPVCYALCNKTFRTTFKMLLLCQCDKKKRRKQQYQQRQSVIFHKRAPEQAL
UniProt P11229: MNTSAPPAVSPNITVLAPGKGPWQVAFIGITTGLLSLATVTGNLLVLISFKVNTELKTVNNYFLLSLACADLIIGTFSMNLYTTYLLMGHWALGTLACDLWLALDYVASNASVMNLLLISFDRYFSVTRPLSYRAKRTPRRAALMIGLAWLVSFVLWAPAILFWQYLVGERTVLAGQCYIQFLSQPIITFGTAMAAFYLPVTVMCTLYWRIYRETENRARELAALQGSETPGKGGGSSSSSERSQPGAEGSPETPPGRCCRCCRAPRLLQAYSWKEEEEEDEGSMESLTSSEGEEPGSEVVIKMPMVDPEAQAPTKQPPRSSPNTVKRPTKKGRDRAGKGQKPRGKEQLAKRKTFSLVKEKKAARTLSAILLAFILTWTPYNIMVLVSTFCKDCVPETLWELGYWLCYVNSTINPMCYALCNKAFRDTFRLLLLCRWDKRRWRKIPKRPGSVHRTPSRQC
UniProt P08912, whole entry: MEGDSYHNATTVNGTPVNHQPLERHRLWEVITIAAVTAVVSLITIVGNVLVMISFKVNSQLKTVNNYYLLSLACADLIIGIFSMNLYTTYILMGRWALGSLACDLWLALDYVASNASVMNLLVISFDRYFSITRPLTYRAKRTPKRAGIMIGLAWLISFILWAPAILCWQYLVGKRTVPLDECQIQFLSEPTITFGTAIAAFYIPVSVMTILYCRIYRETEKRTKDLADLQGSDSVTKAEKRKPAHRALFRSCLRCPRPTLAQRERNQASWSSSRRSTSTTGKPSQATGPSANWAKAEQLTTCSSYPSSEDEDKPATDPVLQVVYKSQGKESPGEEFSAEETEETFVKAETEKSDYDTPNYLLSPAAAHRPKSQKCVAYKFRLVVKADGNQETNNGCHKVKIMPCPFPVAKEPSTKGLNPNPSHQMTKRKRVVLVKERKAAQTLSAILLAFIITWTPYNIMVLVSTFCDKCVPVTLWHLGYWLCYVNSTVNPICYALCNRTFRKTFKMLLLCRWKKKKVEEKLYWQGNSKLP

The target of assay [1] is Muscarinic acetylcholine receptor M3 (Homo sapiens, UniProt P20309). As to the kind of experiment: biochemical. The assay is classed as cell-based, CHO.
Assay [2] addresses Muscarinic acetylcholine receptor M1 (Homo sapiens, UniProt P11229). As to the kind of experiment: biochemical. The assay is classed as cell-based, CHO.
In assay [3] the target is Muscarinic acetylcholine receptor M5 (Homo sapiens, UniProt P08912). As to the kind of experiment: Displacement of [3H]NMS from human cloned muscarinic M5 receptor expressed in CHO cells. In kind it is cell-based. A general note: Displacement assays read how much labelled ligand stays bound in the presence of the test substance.

The Ki is a dissociation constant, usually derived from enzyme kinetics or from competition with a known ligand.

Take `C[C@@H]1COC[C@H](C[N+](C)(C)C)O1.[I-]`: the results for the Ki in assay [1] and in assay [2] were 36.3 µM and more than 100 µM, respectively.
Turning to `C[C@H]1COC[C@H](C[N+](C)(C)C)O1.[I-]`, the inhibitory constant (Ki) in assay [3] is 30.2 µM; in assay [1], 23.4 µM; in assay [2], 74.1 µM.
As to `C[C@H]1COC[C@@H](C[N+](C)(C)C)O1.[I-]`, the Ki in assay [1] is 3.39 µM; in assay [2], 12.9 µM.
`C[C@@H]1COC[C@@H](C[N+](C)(C)C)O1.[I-]` had a Ki in assay [1] of 61.7 µM.
Take `CC1COCC(C[N+](C)(C)C)O1.[I-]` (racemic; form 1): the Ki in assay [1] is 7.59 µM; in assay [2], 30.2 µM.
The matching figures for `CC1COCC(C[N+](C)(C)C)O1.[I-]` (racemic; form 2): 35.5 µM and more than 100 µM.
